{"source": "patent US20110306801A1", "about": "“EXTRACTION AND SEPARATION PROCESSES FOR RECOVERY OF ORGANIC SOLUTES FROM FEED SOURCES AND APPARATUSES FOR PERFORMING SAME” (Trans Ionics Corporation, priority 2009, published 2011)", "key": {"[1]": {"conditions": "butanol, ABE feed, cetyl alcohol/mixed xylenes 50/50 wt %"}, "[2]": {"protocol": "One measure of the effectiveness of a solvent for extracting solutes is termed the distribution coefficient, which is calculated as follows in Formula (1):\nDC=(Wo/Ws)ext/(Wo/Ww)raff (1)\nThe slope of this line is the distribution coefficient."}, "[3]": {"conditions": "butanol, ABE solution in water, mixed xylenes 5:1, 40° C., feed Wo/Ww 0.005"}, "[4]": {"conditions": "butanol, ABE solution in water, mixed xylenes 5:1, 40° C., feed Wo/Ww 0.01"}, "[5]": {"conditions": "butanol, ABE solution in water, mixed xylenes 5:1, 40° C., feed Wo/Ww 0.02"}, "[6]": {"conditions": "butanol, ABE solution in water, mixed xylenes 5:1, 40° C., feed Wo/Ww 0.025"}, "[7]": {"conditions": "butanol, ABE solution in water, mixed xylenes 5:1, 40° C., feed Wo/Ww 0.03"}, "[8]": {"conditions": "butanol, ABE solution in water, mixed xylenes 5:1, 75° C., feed Wo/Ww 0.005"}, "[9]": {"conditions": "butanol, ABE solution in water, mixed xylenes 5:1, 75° C., feed Wo/Ww 0.01"}, "[10]": {"conditions": "butanol, ABE solution in water, mixed xylenes 5:1, 75° C., feed Wo/Ww 0.02"}, "[11]": {"conditions": "butanol, ABE solution in water, mixed xylenes 5:1, 75° C., feed Wo/Ww 0.025"}, "[12]": {"conditions": "butanol, ABE solution in water, mixed xylenes 5:1, 75° C., feed Wo/Ww 0.03"}, "[13]": {"conditions": "n-butanol in water, mixed xylenes 5:1, 22° C., feed Wo/Ww 0.01"}, "[14]": {"conditions": "n-butanol in water, mixed xylenes 5:1, 22° C., feed Wo/Ww 0.02"}, "[15]": {"conditions": "n-butanol in water, mixed xylenes 5:1, 22° C., feed Wo/Ww 0.04"}, "[16]": {"conditions": "n-butanol in water, mixed xylenes 5:1, 22° C., feed Wo/Ww 0.06"}, "[17]": {"conditions": "n-butanol in water, mixed xylenes 5:1, 40° C., feed Wo/Ww 0.01"}, "[18]": {"conditions": "n-butanol in water, mixed xylenes 5:1, 40° C., feed Wo/Ww 0.02"}, "[19]": {"conditions": "n-butanol in water, mixed xylenes 5:1, 40° C., feed Wo/Ww 0.04"}, "[20]": {"conditions": "n-butanol in water, mixed xylenes 5:1, 40° C., feed Wo/Ww 0.06"}}, "note": "Where two headings read alike, the source gives them in different places."}
{"substance": "n-butanol", "values": [{"measurement": "Extract (Wo/Ws)", "setting": "[1]; 5:1, 40° C., feed Wo/Ww 0.03", "result": 0.0008, "unit": "Wo/Ws"}, {"measurement": "Raffinate (Wo/Ww)", "setting": "[1]; 5:1, 40° C., feed Wo/Ww 0.03", "result": 0.0003, "unit": "Wo/Ww"}, {"measurement": "Extract (Wo/Ws)", "setting": "[1]; 5:1, 40° C., feed Wo/Ww 0.06", "result": 0.0017, "unit": "Wo/Ws"}, {"measurement": "Raffinate (Wo/Ww)", "setting": "[1]; 5:1, 40° C., feed Wo/Ww 0.06", "result": 0.0006, "unit": "Wo/Ww"}, {"measurement": "Extract (Wo/Ws)", "setting": "[1]; 5:1, 40° C., feed Wo/Ww 0.060", "result": 0.00113, "unit": "Wo/Ws"}, {"measurement": "Raffinate (Wo/Ww)", "setting": "[1]; 5:1, 40° C., feed Wo/Ww 0.060", "result": 0.00038, "unit": "Wo/Ww"}, {"measurement": "Extract (Wo/Ws)", "setting": "[1]; 5:1, 40° C., feed Wo/Ww 0.12", "result": 0.0037, "unit": "Wo/Ws"}, {"measurement": "Raffinate (Wo/Ww)", "setting": "[1]; 5:1, 40° C., feed Wo/Ww 0.12", "result": 0.0011, "unit": "Wo/Ww"}, {"measurement": "Extract (Wo/Ws)", "setting": "[1]; 5:1, 40° C., feed Wo/Ww 0.16", "result": 0.0050, "unit": "Wo/Ws"}, {"measurement": "Raffinate (Wo/Ww)", "setting": "[1]; 5:1, 40° C., feed Wo/Ww 0.16", "result": 0.0014, "unit": "Wo/Ww"}, {"measurement": "Extract (Wo/Ws)", "setting": "[1]; 5:1, 40° C., feed Wo/Ww 0.20", "result": 0.0058, "unit": "Wo/Ws"}, {"measurement": "Raffinate (Wo/Ww)", "setting": "[1]; 5:1, 40° C., feed Wo/Ww 0.20", "result": 0.0017, "unit": "Wo/Ww"}, {"measurement": "Extract (Wo/Ws)", "setting": "[1]; 5:1, 75° C., feed Wo/Ww 0.03", "result": 0.0008, "unit": "Wo/Ws"}, {"measurement": "Raffinate (Wo/Ww)", "setting": "[1]; 5:1, 75° C., feed Wo/Ww 0.03", "result": 0.0002, "unit": "Wo/Ww"}, {"measurement": "Extract (Wo/Ws)", "setting": "[1]; 5:1, 75° C., feed Wo/Ww 0.06", "result": 0.0017, "unit": "Wo/Ws"}, {"measurement": "Raffinate (Wo/Ww)", "setting": "[1]; 5:1, 75° C., feed Wo/Ww 0.06", "result": 0.0005, "unit": "Wo/Ww"}, {"measurement": "Extract (Wo/Ws)", "setting": "[1]; 5:1, 75° C., feed Wo/Ww 0.060", "result": 0.00129, "unit": "Wo/Ws"}, {"measurement": "Raffinate (Wo/Ww)", "setting": "[1]; 5:1, 75° C., feed Wo/Ww 0.060", "result": 0.00026, "unit": "Wo/Ww"}, {"measurement": "Extract (Wo/Ws)", "setting": "[1]; 5:1, 75° C., feed Wo/Ww 0.12", "result": 0.0039, "unit": "Wo/Ws"}, {"measurement": "Raffinate (Wo/Ww)", "setting": "[1]; 5:1, 75° C., feed Wo/Ww 0.12", "result": 0.0010, "unit": "Wo/Ww"}, {"measurement": "Extract (Wo/Ws)", "setting": "[1]; 5:1, 75° C., feed Wo/Ww 0.16", "result": 0.0049, "unit": "Wo/Ws"}, {"measurement": "Raffinate (Wo/Ww)", "setting": "[1]; 5:1, 75° C., feed Wo/Ww 0.16", "result": 0.0012, "unit": "Wo/Ww"}, {"measurement": "Extract (Wo/Ws)", "setting": "[1]; 5:1, 75° C., feed Wo/Ww 0.20", "result": 0.0060, "unit": "Wo/Ws"}, {"measurement": "Raffinate (Wo/Ww)", "setting": "[1]; 5:1, 75° C., feed Wo/Ww 0.20", "result": 0.0014, "unit": "Wo/Ww"}, {"measurement": "Extract (Wo/Ws)", "setting": "[2]; [3]", "result": 0.0016, "unit": "Wo/Ws"}, {"measurement": "Raffinate (Wo/Ww)", "setting": "[2]; [3]", "result": 0.0018, "unit": "Wo/Ww"}, {"measurement": "Extract (Wo/Ws)", "setting": "[2]; [4]", "result": 0.0008, "unit": "Wo/Ws"}, {"measurement": "Raffinate (Wo/Ww)", "setting": "[2]; [4]", "result": 0.0009, "unit": "Wo/Ww"}, {"measurement": "Extract (Wo/Ws)", "setting": "[2]; [5]", "result": 0.0031, "unit": "Wo/Ws"}, {"measurement": "Raffinate (Wo/Ww)", "setting": "[2]; [5]", "result": 0.0038, "unit": "Wo/Ww"}, {"measurement": "Extract (Wo/Ws)", "setting": "[2]; [6]", "result": 0.0043, "unit": "Wo/Ws"}, {"measurement": "Raffinate (Wo/Ww)", "setting": "[2]; [6]", "result": 0.0043, "unit": "Wo/Ww"}, {"measurement": "Extract (Wo/Ws)", "setting": "[2]; [7]", "result": 0.0054, "unit": "Wo/Ws"}, {"measurement": "Raffinate (Wo/Ww)", "setting": "[2]; [7]", "result": 0.0052, "unit": "Wo/Ww"}, {"measurement": "Extract (Wo/Ws)", "setting": "[2]; [8]", "result": 0.0009, "unit": "Wo/Ws"}, {"measurement": "Raffinate (Wo/Ww)", "setting": "[2]; [8]", "result": 0.0005, "unit": "Wo/Ww"}, {"measurement": "Extract (Wo/Ws)", "setting": "[2]; [9]", "result": 0.0018, "unit": "Wo/Ws"}, {"measurement": "Raffinate (Wo/Ww)", "setting": "[2]; [9]", "result": 0.0009, "unit": "Wo/Ww"}, {"measurement": "Extract (Wo/Ws)", "setting": "[2]; [10]", "result": 0.0036, "unit": "Wo/Ws"}, {"measurement": "Raffinate (Wo/Ww)", "setting": "[2]; [10]", "result": 0.0019, "unit": "Wo/Ww"}, {"measurement": "Extract (Wo/Ws)", "setting": "[2]; [11]", "result": 0.0047, "unit": "Wo/Ws"}, {"measurement": "Raffinate (Wo/Ww)", "setting": "[2]; [11]", "result": 0.0025, "unit": "Wo/Ww"}, {"measurement": "Extract (Wo/Ws)", "setting": "[2]; [12]", "result": 0.0059, "unit": "Wo/Ws"}, {"measurement": "Raffinate (Wo/Ww)", "setting": "[2]; [12]", "result": 0.0030, "unit": "Wo/Ww"}, {"measurement": "Distribution Coefficient", "setting": "[2]; butanol, dilute acetone/n-butanol/ethanol in water/mixed xylenes, solvent:feed 5:1, 40° C.", "result": 0.9677}, {"measurement": "Distribution Coefficient", "setting": "[2]; butanol, dilute acetone/n-butanol/ethanol in water/mixed xylenes, solvent:feed 5:1, 75° C.", "result": 1.9257}, {"measurement": "Extract (Wo/Ws)", "setting": "[2]; [13]", "result": 0.0036, "unit": "Wo/Ws"}, {"measurement": "Raffinate (Wo/Ww)", "setting": "[2]; [13]", "result": 0.0054, "unit": "Wo/Ww"}, {"measurement": "Extract (Wo/Ws)", "setting": "[2]; [14]", "result": 0.0017, "unit": "Wo/Ws"}, {"measurement": "Raffinate (Wo/Ww)", "setting": "[2]; [14]", "result": 0.0027, "unit": "Wo/Ww"}, {"measurement": "Extract (Wo/Ws)", "setting": "[2]; [15]", "result": 0.0070, "unit": "Wo/Ws"}, {"measurement": "Raffinate (Wo/Ww)", "setting": "[2]; [15]", "result": 0.0103, "unit": "Wo/Ww"}, {"measurement": "Extract (Wo/Ws)", "setting": "[2]; [16]", "result": 0.0106, "unit": "Wo/Ws"}, {"measurement": "Raffinate (Wo/Ww)", "setting": "[2]; [16]", "result": 0.0141, "unit": "Wo/Ww"}, {"measurement": "Extract (Wo/Ws)", "setting": "[2]; [17]", "result": 0.0075, "unit": "Wo/Ws"}, {"measurement": "Raffinate (Wo/Ww)", "setting": "[2]; [17]", "result": 0.0069, "unit": "Wo/Ww"}, {"measurement": "Extract (Wo/Ws)", "setting": "[2]; [18]", "result": 0.0039, "unit": "Wo/Ws"}, {"measurement": "Raffinate (Wo/Ww)", "setting": "[2]; [18]", "result": 0.0037, "unit": "Wo/Ww"}, {"measurement": "Extract (Wo/Ws)", "setting": "[2]; [19]", "result": 0.0117, "unit": "Wo/Ws"}, {"measurement": "Raffinate (Wo/Ww)", "setting": "[2]; [19]", "result": 0.0098, "unit": "Wo/Ww"}, {"measurement": "Extract (Wo/Ws)", "setting": "[2]; [20]", "result": 0.0021, "unit": "Wo/Ws"}, {"measurement": "Raffinate (Wo/Ww)", "setting": "[2]; [20]", "result": 0.0018, "unit": "Wo/Ww"}, {"measurement": "Distribution Coefficient", "setting": "[2]; n-butanol, water/mixed xylenes, solvent:feed 5:1, 22° C.", "result": 0.7195}, {"measurement": "Distribution Coefficient", "setting": "[2]; n-butanol, water/mixed xylenes, solvent:feed 5:1, 40° C.", "result": 1.1494}]}
